The source of these data is US20220087987A1, “A METHOD FOR TREATING SWI/SNF COMPLEX-DEFICIENT CANCERS COMPRISING GLUTATHIONE (GSH) METABOLIC PATHWAY INHIBITOR” (National Cancer Center, priority 2018, published 2022).

What is called viability is a per cent measure of how many cells are alive, often set against a control.

The data set can be described thus: in vitro. The following applies: human.

`COc1ccc(C[C@H]2NC[C@H](O)[C@H]2OC(C)=O)cc1` [anisomycin] had a viability of 5.36%.
